Laboratory results from ChEMBL document CHEMBL5108060, “Discovery, Characterization, and Structure-Based Optimization of Small-Molecule In Vitro and In Vivo Probes for Human DNA Polymerase Theta” (J Med Chem, 2022).

Protein sequences, listed by entry. Tags and fused reporters are not part of them. Lines headed by an entry give the natural chain unless they say otherwise; changes in a name come on top.
UniProt O75417: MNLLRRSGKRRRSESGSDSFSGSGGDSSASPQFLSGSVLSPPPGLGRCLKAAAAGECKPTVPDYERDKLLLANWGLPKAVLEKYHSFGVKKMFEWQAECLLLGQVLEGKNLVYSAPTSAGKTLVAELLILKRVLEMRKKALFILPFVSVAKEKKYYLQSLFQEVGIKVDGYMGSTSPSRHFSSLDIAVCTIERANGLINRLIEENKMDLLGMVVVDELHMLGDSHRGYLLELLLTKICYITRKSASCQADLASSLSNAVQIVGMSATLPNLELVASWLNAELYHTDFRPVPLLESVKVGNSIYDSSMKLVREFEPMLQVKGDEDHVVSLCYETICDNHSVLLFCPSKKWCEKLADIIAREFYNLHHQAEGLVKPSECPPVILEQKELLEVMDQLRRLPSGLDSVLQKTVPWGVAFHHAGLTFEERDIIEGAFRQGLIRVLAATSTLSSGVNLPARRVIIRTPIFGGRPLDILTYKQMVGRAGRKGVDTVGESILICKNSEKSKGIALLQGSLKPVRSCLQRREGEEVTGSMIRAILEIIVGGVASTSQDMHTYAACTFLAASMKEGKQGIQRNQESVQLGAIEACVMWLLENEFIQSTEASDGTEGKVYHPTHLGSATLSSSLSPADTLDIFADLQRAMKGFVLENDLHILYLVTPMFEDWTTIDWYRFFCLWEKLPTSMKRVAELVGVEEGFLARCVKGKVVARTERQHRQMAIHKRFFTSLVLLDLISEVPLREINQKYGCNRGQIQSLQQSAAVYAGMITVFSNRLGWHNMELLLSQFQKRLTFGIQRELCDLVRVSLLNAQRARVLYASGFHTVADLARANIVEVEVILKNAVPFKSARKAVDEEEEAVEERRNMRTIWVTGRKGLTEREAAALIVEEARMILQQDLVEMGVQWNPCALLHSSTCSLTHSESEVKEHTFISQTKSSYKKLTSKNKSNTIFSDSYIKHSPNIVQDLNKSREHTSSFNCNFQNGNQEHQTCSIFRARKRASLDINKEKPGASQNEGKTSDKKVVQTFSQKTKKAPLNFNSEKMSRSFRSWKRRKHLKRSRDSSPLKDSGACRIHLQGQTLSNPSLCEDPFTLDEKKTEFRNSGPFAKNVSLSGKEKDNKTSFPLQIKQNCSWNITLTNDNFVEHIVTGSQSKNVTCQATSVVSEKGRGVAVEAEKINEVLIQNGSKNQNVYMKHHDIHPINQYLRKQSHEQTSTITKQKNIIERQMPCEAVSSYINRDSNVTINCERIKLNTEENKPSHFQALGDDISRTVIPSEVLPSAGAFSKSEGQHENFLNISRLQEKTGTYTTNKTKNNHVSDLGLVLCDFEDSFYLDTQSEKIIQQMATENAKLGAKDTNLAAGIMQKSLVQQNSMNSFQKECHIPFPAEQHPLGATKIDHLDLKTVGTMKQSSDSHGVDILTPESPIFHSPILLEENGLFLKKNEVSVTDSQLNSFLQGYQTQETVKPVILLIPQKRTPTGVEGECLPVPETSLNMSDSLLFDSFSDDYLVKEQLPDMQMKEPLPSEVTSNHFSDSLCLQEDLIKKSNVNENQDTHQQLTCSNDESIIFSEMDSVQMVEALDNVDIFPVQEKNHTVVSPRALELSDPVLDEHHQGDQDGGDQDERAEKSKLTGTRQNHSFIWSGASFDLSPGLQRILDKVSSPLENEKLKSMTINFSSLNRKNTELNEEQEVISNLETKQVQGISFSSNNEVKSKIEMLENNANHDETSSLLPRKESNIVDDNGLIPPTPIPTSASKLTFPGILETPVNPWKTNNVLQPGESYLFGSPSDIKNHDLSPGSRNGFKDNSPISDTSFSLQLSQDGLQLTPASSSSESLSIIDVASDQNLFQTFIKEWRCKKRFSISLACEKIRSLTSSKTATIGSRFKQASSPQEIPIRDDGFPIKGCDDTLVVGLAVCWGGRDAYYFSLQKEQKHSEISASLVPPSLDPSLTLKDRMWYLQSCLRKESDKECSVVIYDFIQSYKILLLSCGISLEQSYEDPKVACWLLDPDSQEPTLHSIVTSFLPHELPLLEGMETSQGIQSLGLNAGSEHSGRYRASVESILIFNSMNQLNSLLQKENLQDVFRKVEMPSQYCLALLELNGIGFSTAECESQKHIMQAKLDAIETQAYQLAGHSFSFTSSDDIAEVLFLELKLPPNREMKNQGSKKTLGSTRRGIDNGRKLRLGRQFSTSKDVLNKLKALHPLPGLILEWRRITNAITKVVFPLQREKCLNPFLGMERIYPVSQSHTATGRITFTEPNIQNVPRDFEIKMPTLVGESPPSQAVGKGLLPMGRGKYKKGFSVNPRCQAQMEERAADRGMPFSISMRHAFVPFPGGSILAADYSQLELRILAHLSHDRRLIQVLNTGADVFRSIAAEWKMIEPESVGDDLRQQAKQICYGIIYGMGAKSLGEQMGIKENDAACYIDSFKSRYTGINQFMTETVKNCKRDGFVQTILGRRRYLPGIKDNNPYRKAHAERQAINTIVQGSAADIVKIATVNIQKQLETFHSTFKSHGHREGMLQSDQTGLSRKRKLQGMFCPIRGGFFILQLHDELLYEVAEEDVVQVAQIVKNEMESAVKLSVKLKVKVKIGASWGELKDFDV

What was measured:
DNA polymerase theta [1] = target: T1, DNA polymerase theta (Homo sapiens, UniProt O75417); assay: Displacement of tracer from recombinant Tb-labeled DNA polymerase theta (unknown origin) assessed as Koff using DNA as substrate preincubated for 30 mins followed by compound addition for 2 hrs by HTRF assay
DNA polymerase theta [2] = target: T1, DNA polymerase theta; assay: Displacement of tracer from recombinant Tb-labeled DNA polymerase theta (unknown origin) assessed as Kon using DNA as substrate preincubated for 30 mins followed by compound addition for 2 hrs by HTRF assay

SMILES | K (DNA polymerase theta [1]) | K (DNA polymerase theta [2])
Cc1cccc(N(C)C(=O)[C@@H]2C[C@H](O)CN2c2nc(C)cc(C(F)(F)F)c2C#N)c1 | 0.32 s⁻¹ | 4.05 10^7/M/s
Cc1cccc(N(C)C(=O)[C@@H]2[C@@H](O)CCN2c2nc(C)cc(C(F)(F)F)c2C#N)c1 | 0.16 s⁻¹ | 6.69 10^7/M/s
Cc1cccc(N(C)C(=O)[C@@H]2[C@H](O)CCN2c2nc(C)cc(C(F)(F)F)c2C#N)c1 | 0.082 s⁻¹ | 1.85 10^7/M/s
Cc1cccc(N(C)C(=O)[C@@H]2C[C@H](O)CN2c2nc(C)cc(C)c2C#N)c1 | 0.17 s⁻¹ | 1.06 10^7/M/s
